From patent US9771331B2, “Methods of identifying neuroprotective compounds for retinal ganglion cells” (THE JOHNS HOPKINS UNIVERSITY, priority 2005, dated 2017)
Entries after “also recorded” stand apart in the source; their conditions may differ.

Legend:
[1] = system: retinal ganglion cells (RGCs); assay: High-content neurite outgrowth screen of purified retinal ganglion cell cultures (number of outgrowth neurons); type: cell-based, rat; conditions: 50 ng/ml, 120 hours
Description: Retinal ganglion cell harvest and immunopurification are performed as described above and in the specific Examples, below. A concentration range of neuroprotective compounds to be validated is prepared and added to test wells (e.g., to achieve final concentrations of 3 μM, 10 μM, 15 μM, 30 μM, 60 μM, 90 μM, 120 μM, and 150 μM in 1% DMSO in each well). For a neuroprotective compound obtained from the DIVERSET™ library, for example, 1 mg of desiccated compound can be resuspended in 22.2 μl of DMSO to a final stock solution of 150 mM. […] Afterwards, the solution can be stored in the dark at −20° C. […]
The purified Thy-1 immunoreactive cells are resuspended in growth media (Neurobasal media, B27 supplement, 2 mM glutamine, and 1 U/ml penicillin/streptomycin) and quantified using a hematocytometer. […] One hour after seeding, a post-seeding viability is determined by staining with Hoechst and TOTO3 and calculating the percent of live cells.
(§1) After 120 hours of incubation, cells are stained with 5 μM Hoechst and 10 μM Calcein AM (Molecular Probes). […] Cleavage of the AM group occurs spontaneously when calcein AM is suspended in aqueous solution resulting in a significant increase in background fluorescence over time. […]
Fifteen stereotypic field are autofocus imaged on a Cellomics KINETICSCAN® High Content Scan Reader using epifluorescence and filter sets corresponding to each of the two dyes. […]

[2] = system: retinal ganglion cells (RGCs); assay: Overall cell survival of cultured RGCs after 120 hours; type: cell-based, rat; conditions: 50 ng/ml
Description: The purified Thy-1 immunoreactive cells are resuspended in growth media (Neurobasal media, B27 supplement, 2 mM glutamine, and 1 U/ml penicillin/streptomycin) and quantified using a hematocytometer. Cells are seeded in 100 μl at a density of 4000 cells/well (150/mm^2) in 96 well culture dishes (Falcon) that had been sequentially coated with poly-d-lysine (0.01 mg/ml) and laminin (0.01 μg/μl) (Sigma). Each well either contains 25 μl of media alone or 5× drug or 5×BDNF and forskolin. Final concentrations are: DMSO (1%), drug (20 to 30 μM), BDNF (50 ng/ml) and forskolin (10 μM). Culture dishes are placed in an incubator maintained at 37° C. and 5% CO2. One hour after seeding, a post-seeding viability is determined by staining with Hoechst and TOTO3 and calculating the percent of live cells.
as §1
Images are processed using the Cellomics Extended Neurite Outgrowth software program. […] In addition, each nuclei on the Hoechst channel is matched to a calcein-stained cell and counted as a “valid neuron” (i.e., a live cell). […]

B1: BMP2: bone morphogenetic protein, member of the TGFβ superfamily (protein, UniProt P12643 283-396, looked up)
Bone morphogenetic protein 2: QAKHKQRKRLKSSCKRHPLYVDFSDVGWNDWIVAPPGYHAFYCHGECPFPLADHLNSTNHAIVQTLVNSVNSKIPKACCVPTELSAISMLYLDENEKVVLKNYQDMVVEGCGCR
Question: What does the source list for B1?
Answer: outgrowth count ratio (mean fold-change from control) ([1]; normalized to medium only): 1.61±0.80; number of outgrowth neurons ([1]; versus cultures grown in medium only): significantly increased; also recorded: Statistically significant increases; overall cell survival (number of surviving cells) [2]: no effect
